By IC50 is commonly meant the concentration at which inhibition is half-maximal.

Sequences of proteins named here, by UniProt entry; tags and fusion partners are left off. Residues count along the entry.
UniProt Q60748, 1-431 isoform Q60748-2: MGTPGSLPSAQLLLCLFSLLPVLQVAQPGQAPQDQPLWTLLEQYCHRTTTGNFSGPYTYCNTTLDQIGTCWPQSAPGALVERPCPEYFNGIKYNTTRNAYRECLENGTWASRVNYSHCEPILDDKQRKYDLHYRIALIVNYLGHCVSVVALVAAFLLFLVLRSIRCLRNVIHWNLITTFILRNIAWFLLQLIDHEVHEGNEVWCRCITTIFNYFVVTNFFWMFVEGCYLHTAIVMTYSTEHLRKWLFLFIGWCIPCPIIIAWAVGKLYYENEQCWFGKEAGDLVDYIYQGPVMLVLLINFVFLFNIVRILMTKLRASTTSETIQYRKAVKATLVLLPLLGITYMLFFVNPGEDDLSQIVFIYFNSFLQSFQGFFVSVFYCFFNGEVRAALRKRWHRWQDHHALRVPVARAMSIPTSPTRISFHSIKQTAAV

This is an account of results in patent US20040049009A1, “Methods for improving the antagonistic/agonistic properties of peptidic antagonists/agonists of the corticotropin-releasing factor receptor (crfr)” (priority 2000, published 2004).

Read-outs that look alike come from different tables or passages of the source.

One data set concerns the target T1, rCRFBP (Rattus norvegicus, UniProt P24388).
T1 construct: made in house; host or cells: HEK-293 cells, stably transfected; culture medium holding the secreted protein was used
T1 sequence (P24388 25-322): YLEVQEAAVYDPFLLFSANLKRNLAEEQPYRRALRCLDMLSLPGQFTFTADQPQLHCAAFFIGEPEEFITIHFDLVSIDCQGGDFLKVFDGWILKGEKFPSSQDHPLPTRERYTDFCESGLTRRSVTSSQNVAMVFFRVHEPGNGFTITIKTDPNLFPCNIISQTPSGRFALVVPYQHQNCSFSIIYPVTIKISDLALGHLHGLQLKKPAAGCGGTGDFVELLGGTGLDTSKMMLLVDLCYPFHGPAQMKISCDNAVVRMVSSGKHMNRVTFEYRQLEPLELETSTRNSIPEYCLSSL
Put plainly: Competitive binding to rCRFBP, scintillation proximity assay with [125I-Tyr0]h/rCRF. The conditions noted are these: 0.1 nM [125I-Tyr0]h/rCRF, n.b. = no specific binding with up to 3 μM inhibitor; for IC50: read-out: IC50 rCRFBP.

The next data set concerns the target T2, mCRFR2β (Mus musculus, UniProt Q60748).
T2 construct: expressed in transfected cells
Put plainly: Competitive binding to mCRFR2β, SPA on HEK-293 membrane fractions with [125I-Tyr0]Svg.

A short description of data set [1]: Isoelectric focusing (IEF). The class given is physicochemical. To be noted: determined by isoelectric focussing.
Another data set has as its target T3, rCRFR1 (Rattus norvegicus, UniProt P35353).
T3 sequence (P35353 24-415): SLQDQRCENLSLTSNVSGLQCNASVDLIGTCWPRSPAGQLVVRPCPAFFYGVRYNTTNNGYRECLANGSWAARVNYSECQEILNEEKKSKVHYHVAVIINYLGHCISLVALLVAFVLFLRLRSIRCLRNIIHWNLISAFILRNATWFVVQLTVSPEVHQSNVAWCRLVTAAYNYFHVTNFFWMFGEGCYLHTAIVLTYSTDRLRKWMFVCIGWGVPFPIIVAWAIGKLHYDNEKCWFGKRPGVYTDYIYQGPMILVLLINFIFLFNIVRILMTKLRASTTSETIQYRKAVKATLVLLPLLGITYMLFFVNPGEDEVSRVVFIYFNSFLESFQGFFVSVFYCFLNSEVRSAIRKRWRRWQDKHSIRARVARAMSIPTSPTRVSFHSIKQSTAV

For data set [2] the following is noted: from Brauns et al. (16); cited from earlier work.
Where [3] appears, read: read-out: IC50 mCRFR2β; 0.05 nM [125I-Tyr0]Svg.

For the substance anti-sauvagine-30 [aSvg-30], the “IC50 rCRFBP” value at rCRFBP is recorded as “n.b”. Moreover, the results for the IC50 at mCRFR2β (0.05 nM [125I-Tyr0]Svg; read-out: IC50 mCRFR2β) and against rCRFR1 were 0.3 nM and 370 nM, respectively. For the same substance, the Isoelectric point in data set [1] is more than 9.5. Besides, the “maximum solubility (cmax) in aCSF” value in data set [2] is >4000^4 μM.
Turning to h/rCRF, the IC50 amounted to 0.54 nM on rCRFBP, 42 nM at mCRFR2β (setting [3]) and 1.6 nM at rCRFR1. Further, the Isoelectric point in data set [1] was 5.9.
For oCRF, the IC50 at rCRFBP is 470 nM; on mCRFR2β (setting [3]) it was 200 nM; against rCRFR1 it was 1 nM. The Isoelectric point in data set [1] amounted to 6.4.
For α-helical CRF^9-41 [α-hel-CRF^9-41], the IC50 on rCRFBP was found to be 1 nM; on mCRFR2β (setting [3]), 4.3 nM; on rCRFR1, 61 nM. The same substance gave an Isoelectric point in data set [1] of 5.3. For the same substance, the “maximum solubility (cmax) in aCSF” value in data set [2] is reported as 1480^4 μM.
